According to PubChem BioAssay AID1645859 (Buhrlage Lab, Dana-Farber Cancer Institute and Novartis …, 2021):
Only a part is listed here, and it is no random draw. The source made the active and inactive calls. No stated cut-off is given here; in the data, active means inhibition above about 30%; inactive means the rest.

Sequences of proteins named here, by UniProt entry; tags and fusion partners are left off. A change or cut given only in a name is not applied to a line headed by its entry.
UniProt P09936: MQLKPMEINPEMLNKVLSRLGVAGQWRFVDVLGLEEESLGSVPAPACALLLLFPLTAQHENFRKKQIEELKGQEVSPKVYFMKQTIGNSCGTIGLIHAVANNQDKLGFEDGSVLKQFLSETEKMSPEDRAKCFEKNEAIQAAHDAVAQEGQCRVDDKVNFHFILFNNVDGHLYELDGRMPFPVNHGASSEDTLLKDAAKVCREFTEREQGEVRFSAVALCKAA

target: Ubiquitin carboxyl-terminal hydrolase isozyme L1 (Homo sapiens) (UniProt P09936); assay: inhibitors of human UCHL1 deubiquitinase (AID 1645859); details: purified UCHL1, Ub-rhodamine cleavage fluorescence; at 20 µM; hits give high values

SMILES	inhibition
N#Cc1cccc(C(=O)N(Cc2ccco2)C2CCN(CCc3ccc(Cl)cc3)CC2)c1	inactive: -1.77%
Cc1[nH]c2c(N(C(=O)Nc3ccccc3)C3CCN(Cc4ccccc4)CC3)cccc2c1C	inactive: -7.51%
COc1ccc(CCN2CCC(N(Cc3cccnc3)C(=O)c3cccc(C#N)c3)CC2)cc1	inactive: -8.43%
O=C(c1ccc2c(c1)OCO2)N(Cc1ccco1)C1CCN(CCc2ccccn2)CC1	inactive: 4.06%
O=C(COC(=O)C(O)(c1ccccc1)c1ccccc1)NCc1ccc2c(c1)OCO2	inactive: -1.57%
CS(=O)(=O)c1ccc(C(=O)N(Cc2ccco2)C2CCN(CCc3ccccn3)CC2)cc1	inactive: -3.45%
N#Cc1cccc(C(=O)N(Cc2cccnc2)C2CCN(CCc3ccccn3)CC2)c1	inactive: -4.28%
CS(=O)(=O)c1ccc(C(=O)N(Cc2cccnc2)C2CCN(CCc3ccc(Cl)cc3)CC2)cc1	inactive: -23.2%
N#Cc1cccc(C(=O)N(Cc2ccco2)C2CCN(CCc3ccccn3)CC2)c1	inactive: -4.41%
CN1C(=O)C2C(NC(=NCc3ccco3)N2CCc2ccccc2)N(C)C1=O (stereo unspecified)	inactive: -0.213%
COc1ccc(CCN2CCC(N(Cc3ccco3)C(=O)c3ccc(S(C)(=O)=O)cc3)CC2)cc1	inactive: -5.48%
